Measurements published in PubChem BioAssay AID803 (The Scripps Research Institute Molecular Screening Center, 2007).
The entries are a selection whose mix differs from that of the whole data set. The source made the active and inactive calls. No stated cut-off is given here; in the data, active means activation above about 5% (passing the limit was not always enough); inactive means the rest.

Amino acid sequences for entries named in this document (tags omitted). A change or cut given only in a name is not applied to a line headed by its entry.
UniProt O43603: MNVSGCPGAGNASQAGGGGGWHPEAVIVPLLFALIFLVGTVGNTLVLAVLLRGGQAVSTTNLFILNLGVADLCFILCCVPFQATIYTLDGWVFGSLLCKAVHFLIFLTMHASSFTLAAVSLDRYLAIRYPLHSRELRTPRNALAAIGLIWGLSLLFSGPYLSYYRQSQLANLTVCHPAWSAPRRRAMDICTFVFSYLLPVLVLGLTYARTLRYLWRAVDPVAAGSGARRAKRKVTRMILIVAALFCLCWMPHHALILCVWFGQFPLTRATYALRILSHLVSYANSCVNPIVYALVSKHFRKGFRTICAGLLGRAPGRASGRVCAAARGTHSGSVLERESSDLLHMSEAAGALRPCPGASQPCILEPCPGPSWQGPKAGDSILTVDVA

What follows are compounds tested against Galanin receptor type 2 (Homo sapiens) (UniProt O43603) (assay: GALR2 receptor agonists, primary screen, cell-based (AID 803;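 further: 0% = vehicle buffer wells and 100% = reference agonist at full effect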)). Conditions: GALR2-expressing cells, agonist activation read-out; at 5.6 µM; hits give high values.

| SMILES | activation |
| --- | --- |
| CCC(C)N(CC(C)C)C(=S)SC(NC(C)=O)C(Cl)(Cl)Cl (stereo unspecified) | active: 52.1% |
